Test results as given in patent publication US4820834A, “Benzodiazepine analogs” (priority 1987, dated 1989).

Protein sequences, listed by entry. Tags and fused reporters are not part of them.
UniProt P30551, whole entry: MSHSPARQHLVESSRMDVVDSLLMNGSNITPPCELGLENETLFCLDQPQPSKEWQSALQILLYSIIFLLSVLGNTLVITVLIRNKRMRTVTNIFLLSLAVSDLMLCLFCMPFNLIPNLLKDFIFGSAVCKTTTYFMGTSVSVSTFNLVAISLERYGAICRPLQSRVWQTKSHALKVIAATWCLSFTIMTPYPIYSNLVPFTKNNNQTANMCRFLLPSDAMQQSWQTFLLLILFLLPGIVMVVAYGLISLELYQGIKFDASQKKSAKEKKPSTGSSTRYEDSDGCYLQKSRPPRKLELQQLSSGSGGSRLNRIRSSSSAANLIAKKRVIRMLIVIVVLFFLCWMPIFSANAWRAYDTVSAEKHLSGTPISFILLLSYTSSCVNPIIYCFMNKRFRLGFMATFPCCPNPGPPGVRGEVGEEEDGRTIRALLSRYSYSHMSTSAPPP

Biological target: T1, CCK receptor (pancreas) (Rattus norvegicus, UniProt P30551)
T1 construct: The whole pancreas was dissected free of fat tissue and was homogenized; from tissue; host or cells: rat pancreas membranes (Sprague-Dawley)
Test: CCK Receptor Binding (Pancreas): inhibition of ^125 I-CCK-33 binding
Design: species or system Male Sprague-Dawley rats
Details: rat pancreas membranes, ^125 I-CCK-33, 37° C., 30 minutes
Method: 1. CCK Receptor Binding (Pancreas)
CCK-33 was radiolabeled with ^125 I-Bolton Hunter reagent (2000 Ci/mmole) as described by Sankara et al. (J. Biol. Chem. 254: 9349-9351, 1979). Receptor binding was performed according to Innis and Snyder (Proc. Natl. Acad. Sci. 77: 6917-6921, 1980) with the minor modification of adding the additional protease inhibitors, phenylmethane sulfonyl fluoride and o-phenanthroline.
Male Sprague-Dawley rats (200-350 g) were sacrificed by decapitation. The whole pancreas was dissected free of fat tissue and was homogenized in 20 volumes of ice-cold 50 mM, Tris HCl (pH 7.7 at 25° C.) with a Brinkmann Polytron PT 10. The homogenates were centrifuged at 48,000 g for 10 min. Pellets were resuspended in Tris Buffer, centrifuged as above and resuspended in 200 volumes of binding assay buffer (50 mM Tris HCl, pH 7.7 at 25° C., 5 mM dithiothrietol, 0.1 mM bacitracin, 1.2 mM phenylmethane sulfonyl fluoride and 0.5 mM o-phenanthroline). […] All assays were run in duplicate or triplicate. The reaction mixtures were incubated at 37° C. for 30 minutes and centrifuged in a Beckman Microfuge (4 minutes) immediately after adding 1 ml of ice-cold incubation buffer. The supernatant was aspirated and discarded, pellets were counted with a Beckman gamma 5000. […]

SMILES	IC50 [µM]
CN1C(=O)[C@H](NC(=O)c2ccccc2Br)N=C(c2ccccc2F)c2ccccc21 [Example 171, 3(R)-(+)-3-(2-Bromobenzoylamino)-1,3-dihydro-5-(2-fluorophenyl)-1-methyl-2H-1,4-benzodiazepin-2-one]	9
CN1C(=O)[C@@H](NC(=O)c2ccccc2Br)N=C(c2ccccc2F)c2ccccc21 [Example 161, 3(S)-(-)-3-(2-Bromobenzoylamino)-1,3-dihydro-5-(2-fluorophenyl)-1-methyl-2H-1,4-benzodiazepin-2-one]	6.2
